Experimental data as given in patent US8822494B2 (Pfizer Inc., priority 2012, dated 2014).
pEC50: −log10 of the molar value.

Protein sequences, listed by entry. Tags and fused reporters are not part of them.
UniProt P21728, whole entry: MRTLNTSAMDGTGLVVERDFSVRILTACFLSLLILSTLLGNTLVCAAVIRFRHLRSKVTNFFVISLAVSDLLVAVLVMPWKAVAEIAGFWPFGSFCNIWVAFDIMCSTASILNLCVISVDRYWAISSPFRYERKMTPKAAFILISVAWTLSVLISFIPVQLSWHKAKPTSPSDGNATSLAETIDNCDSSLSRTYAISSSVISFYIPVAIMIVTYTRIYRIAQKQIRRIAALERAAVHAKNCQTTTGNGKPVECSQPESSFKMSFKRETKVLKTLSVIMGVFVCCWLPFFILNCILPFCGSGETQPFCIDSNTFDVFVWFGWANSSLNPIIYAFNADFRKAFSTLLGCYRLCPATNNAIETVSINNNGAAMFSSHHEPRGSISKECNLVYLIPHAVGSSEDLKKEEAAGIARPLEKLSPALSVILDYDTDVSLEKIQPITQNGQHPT

Columns and labels:
[1] = target: T1, Human D1 (Homo sapiens (Human), UniProt P21728); experiment: D1 cAMP HTRF Assay; type: cell-based; settings: HEK293T/hD1#1 stable cell line, 30 min at room temperature; footnote a = geometric mean of ≧7 determinations
Source text: The D1 cAMP (Cyclic Adenosine Monophosphate) HTRF (Homogeneous Time-Resolved Fluorescence) Assay used and described herein is a competitive immunoassay between native cAMP produced by cells and cAMP labeled with XL-665. This assay was used to determine the ability of a test compound to agonize (including partially agonize) D1. A Mab anti-cAMP labeled Cryptate visualizes the tracer. […] The signal, therefore, is inversely proportional to the concentration of cAMP in the sample. A time-resolved and ratiometric measurement (em 665 nm/em 620 nm) minimizes the interference with medium. cAMP HTRF assays are commercially available, for example, from Cisbio Bioassays, IBA group.
The cAMP Dynamic kit was obtained from Cisbio International (Cisbio 62AM4PEJ). […] An EnVision (PerkinElmer) reader was used to read HTRF. […]
Frozen cells were quickly thawed, re-suspended in 50 mL warm media and allowed to sit for 5 min prior to centrifugation (1000 rpm) at room temperature. […] The assay plate was read on an EnVision plate reader using Cisbio recommended settings. […]
Data analysis was done using computer software. Percent effects were calculated from the compound controls. Ratio EC50 was determined using the raw ratio data from the EnVision reader. The cAMP standard curve was used in an analysis program to determine cAMP concentrations from raw ratio data. cAMP EC50 was determined using the calculated cAMP data.

[2] = target: T1, Human D1; experiment: Human D1 Receptor Binding Assay ([3H]-SCH23390 competition); settings: read-out: Human D1 Receptor Binding, Ki (μM); Geometric mean of 2-3 determinations; over-expressing LTK human cell lines, 0.5 nM [3H]-SCH23390, 30 min at 37° C.; footnote b = single determination, c = geometric mean of ≧4 determinations
Experimental: D1 binding assays were performed using over-expressing LTK human cell lines. […] These ligand and tissue concentrations were used in time course studies to determine linearity and equilibrium conditions for binding. Binding was at equilibrium with the specified amount of tissue in 30 minutes at 37° C. […] The pellet was resuspended in assay buffer [50 mM Tris (pH 7.4@ RT) containing 4 mM MgSO4 and 0.5 mM EDTA]. […] Non-specific binding was determined by radioligand binding in the presence of a saturating concentration of (+)-Butaclamol (10 μM), a D1 antagonist. After a 30 minute incubation period at 37° C., assay samples were rapidly filtered through Unifilter-96 GF/B PEI-coated filter plates and rinsed with 50 mM Tris buffer (pH 7.4 at 4° C.). […] Ki values were calculated according to the Cheng-Prusoff equation: […]

## Cc1cc(Oc2nccc3[nH]ncc23)ccc1-c1c(C)nc[n+]([O-])c1C [Example 13, 4-[4-(4,6-dimethyl-1-oxidopyrimidin-5-yl)-3-methylphenoxy]-1H-pyrazolo[4,3-c]pyridine]
[1]
  pEC50: 6.59
[2]
  Ki: 0.0931 µM
